{
  "source": "patent US20140065615A1",
  "about": "“The KRAS Variant and Tumor Biology” (YALE UNIVERSITY, priority 2011, published 2014)",
  "tested_on": "HT-29 (cell line without the allele)",
  "assay": "MTT survival, Irinotecan with or without Cetuximab, HT-29",
  "type": "cell-based",
  "conditions": "non-KRAS variant cell lines; radiation as well as irinotecan chemotherapy",
  "protocol": "Cells were plated, treated with agents 24 hours after plating, media was changed after a 24 hour exposure, and then survival was scored 48 hours later using the MTT assay.",
  "data": [
    {"substance": "Cetuximab: monoclonal antibody targeting epidermal growth factor receptor (anti-EGFR moAb)", "values": [
      {"measurement": "cell death on addition of Cetuximab to cytotoxic therapy vs cytotoxic therapy alone", "value": "increased cell death"}
    ]}
  ]
}
